How the values were obtained:
Assay type in all cases: cell-based
[1] = tested on: human red blood cells (hRBCs); test: Hemolysis assay; details: 2% (v/v) hRBCs in PBS, peptide 0.98–250 µg/ml, 1 h, 37 °C, OD 405 nm
Protocol: The toxicity of all peptide derivatives toward human red blood cells (hRBCs) was investigated by evaluating the amount of hemoglobin released after exposure to peptide. Briefly, hRBCs (blood group O) were collected from a healthy adult volunteer into a heparin-coated polycarbonate tube. The sample was centrifuged for 5 min at 1000g to separate erythrocytes from buffy coat and plasma. The erythrocytes were washed at least three times with 1 × PBS and centrifuged for 5 min at 1000g or until supernatant was clear. The sample was resuspended in PBS to obtain 2% (v/v) hRBCs. To determine hRBC lysis, hRBC suspensions were incubated with equal volumes of various concentrations of peptide (0.98–250 µg/ml) for 1 h at 37 °C. Intact hRBCs were centrifuged for 5 min at 1000g, supernatants were transferred into new 96-well plates, and absorbance was measured at OD 405 nm. Untreated hRBCs (in PBS only) served as negative control (ODNegative) and hRBCs treated with 0.1% Triton X-100 as positive control (ODTritonX-100). Absorbance of samples was converted to percentage hemolysis according to the equation: Hemolysis%=ODSample-ODNegative/ODTriton X-100-ODNegative×100

[2] = tested on: Staphylococcus epidermidis ATCC 12228; details: colony count on TSA from non-turbid MIC wells, triplicate
Excerpt: (§1) All tests were done in triplicate.

[3] = tested on: Staphylococcus aureus ATCC 25923; details: triplicate
Excerpt: as §1

CC[C@H](C)[C@H](NC(=O)CN)C(=O)NCC(=O)N[C@@H](C)C(=O)N[C@H](C(=O)N[C@@H](CC(C)C)C(=O)N[C@@H](CCCCN)C(=O)N[C@H](C(=O)N[C@@H](CC(C)C)C(=O)N[C@H](C(=O)N[C@H](C(=O)NCC(=O)N[C@@H](CC(C)C)C(=O)N1CCC[C@H]1C(=O)N[C@@H](C)C(=O)N[C@@H](CC(C)C)C(=O)N[C@H](C(=O)N[C@@H](CO)C(=O)N[C@@H](Cc1c[nH]c2ccccc12)C(=O)N[C@H](C(=O)N[C@@H](CCCCN)C(=O)N[C@@H](CCCNC(=N)N)C(=O)N[C@@H](CCCCN)C(=O)N[C@@H](CCCNC(=N)N)C(=O)N[C@@H](CCC(N)=O)C(=O)N[C@@H](CCC(N)=O)C(N)=O)[C@@H](C)CC)[C@@H](C)CC)[C@@H](C)O)[C@@H](C)O)C(C)C)C(C)C [Melittin, reference compound]
MHC, minimum concentration that caused 10% hemolysis of human red blood cells [1]: ˂ 0.98 µg/ml | MBC [2]: 3.91 (3.91) µg/ml | MIC ([3]; broth microdilution in MHB, 37 °C, 24 h): 3.91 (3.91) µg/ml | MBC ([3]; colony count on TSA from non-turbid MIC wells): 3.91 (3.91) µg/ml

From PMC9981719, “A novel designed membrane-active peptide for the control of foodborne Salmonella enterica serovar Typhimurium” (Scientific Reports, 2023)
